Measurements reported in patent US9862707B2, “TrkA kinase inhibitors, compositions and methods thereof” (Merck Sharp & Dohme Corp., priority 2014, dated 2018).

Amino acid sequences for entries named in this document (tags omitted). Residues count along the entry.
UniProt P04629, 33-796: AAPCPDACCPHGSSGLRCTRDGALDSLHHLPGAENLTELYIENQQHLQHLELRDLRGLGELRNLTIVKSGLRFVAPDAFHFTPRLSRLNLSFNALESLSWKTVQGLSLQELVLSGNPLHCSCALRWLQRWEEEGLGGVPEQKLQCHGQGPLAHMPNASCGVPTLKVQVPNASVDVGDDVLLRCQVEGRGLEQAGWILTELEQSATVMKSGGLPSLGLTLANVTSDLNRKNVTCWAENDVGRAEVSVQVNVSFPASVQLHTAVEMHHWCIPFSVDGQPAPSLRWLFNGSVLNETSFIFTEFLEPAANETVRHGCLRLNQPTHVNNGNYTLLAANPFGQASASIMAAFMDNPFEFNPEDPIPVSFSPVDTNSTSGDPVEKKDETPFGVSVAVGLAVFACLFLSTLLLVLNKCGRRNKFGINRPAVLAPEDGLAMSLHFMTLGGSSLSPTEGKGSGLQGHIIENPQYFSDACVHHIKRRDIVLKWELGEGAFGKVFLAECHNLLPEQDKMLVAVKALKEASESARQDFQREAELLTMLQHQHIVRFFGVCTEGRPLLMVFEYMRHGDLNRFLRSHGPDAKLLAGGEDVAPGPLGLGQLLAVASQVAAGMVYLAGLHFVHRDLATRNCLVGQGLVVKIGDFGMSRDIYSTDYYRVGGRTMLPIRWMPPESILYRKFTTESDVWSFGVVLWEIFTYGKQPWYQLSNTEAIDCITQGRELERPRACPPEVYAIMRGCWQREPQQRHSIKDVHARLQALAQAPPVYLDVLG

Molecular target: human TrkA receptor (Homo sapiens (Human), UniProt P04629)
Experiment: TrkA functional activity, DiscoverX PathHunter assay
Type: cell-based
Conditions: U2OS cells expressing human TrkA-PK, Shc1-EA and p75NTR; compound 1 h, then NGF at ~80% of maximal response for 3 h; luminescence

Row | SMILES | IC50 [nM]
1 | Cn1ccc(-c2cc(C(=O)Nc3c4ccc(C(C)(O)CO)cc4nn3-c3ccccc3)ccc2C(F)(F)F)n1 (single isomer, unassigned) [Compound 62, N-(6-(1,2-Dihydroxypropan-2-yl)-2-phenyl-2H-indazol-3-yl)-3-(1-methyl-1H-pyrazol-3-yl)-4-(trifluoromethyl)benzamide, isomers A and B] | 4.9
2 | CC(C)(O)c1cnc2c(NC(=O)c3cc(-c4ncccn4)c(C(F)(F)F)cc3Cl)n(-c3ccccc3)nc2c1 [Compound 49, 2-chloro-N-[6-(1-hydroxy-1-methylethyl)-2-phenyl-2H-pyrazolo[4,3-b]pyridin-3-yl]-5-pyrimidin-2-yl-4-(trifluoromethyl)benzamide] | 4.6
3 | Cn1ccc(-c2cc(C(=O)Nc3c4ccc(C(C)(O)CO)cc4nn3-c3ccccc3)ccc2C(F)(F)F)n1 (single isomer, unassigned) [Compound 63, N-(6-(1,2-Dihydroxypropan-2-yl)-2-phenyl-2H-indazol-3-yl)-3-(1-methyl-1H-pyrazol-3-yl)-4-(trifluoromethyl)benzamide, isomers A and B] | 15
4 | CC(O)c1ccc2nn(-c3ccccc3)c(NC(=O)c3cc(-c4ncccn4)c(C(F)(F)F)cc3F)c2n1 (single isomer, unassigned; isomer a) [Compound 27, (R or S)-2-fluoro-N-[5-(1-hydroxyethyl)-2-phenyl-2H-pyrazolo[4,3-b]pyridin-3-yl]-5-pyrimidin-2-yl-4-(trifluoromethyl)benzamide, isomer A] | 9.5
5 | CC(O)c1cc2nn(-c3ccccc3)c(NC(=O)c3cc(-c4ncccn4)c(C(F)(F)F)cc3F)c2cn1 (single isomer, unassigned; isomer a) [Compound 39, (R or S)-2-fluoro-N-[6-(1-hydroxyethyl)-2-phenyl-2H-pyrazolo[4,3-c]pyridin-3-yl]-5-pyrimidin-2-yl-4-(trifluoromethyl)benzamide, isomer A] | 19

Continued by falling IC50, values first:

Row | IC50 [nM] | SMILES
6 | 15 | CC(O)c1ccc2nn(-c3ccccc3)c(NC(=O)c3cc(-c4ncccn4)c(C(F)(F)F)cc3F)c2n1 (single isomer, unassigned; isomer b) [Compound 28, (R or S)-2-fluoro-N-[5-(1-hydroxyethyl)-2-phenyl-2H-pyrazolo[4,3-b]pyridin-3-yl]-5-pyrimidin-2-yl-4-(trifluoromethyl)benzamide, isomer B]
7 | 12 | CC(O)c1ccc2nn(-c3ccccc3)c(NC(=O)c3cc(-c4ncccn4)c(C(F)(F)F)cc3F)c2c1 (single isomer, unassigned; isomer a) [Compound 25, (R or S)-2-fluoro-N-(5-(1-hydroxyethyl)-2-phenyl-2H-indazol-3-yl)-5-(pyrimidin-2-yl)-4-(trifluoromethyl)benzamide, isomer A]
8 | 7.6 | CC(O)c1ccc2nn(-c3ccccc3)c(NC(=O)c3cc(-c4ncccn4)c(C(F)(F)F)cc3F)c2c1 (single isomer, unassigned; isomer b) [Compound 26, (R or S)-2-fluoro-N-(5-(1-hydroxyethyl)-2-phenyl-2H-indazol-3-yl)-5-(pyrimidin-2-yl)-4-(trifluoromethyl)benzamide, isomer B]
